Compounds with a hit are over-represented: about 16% of the library has one in this group of screens.
TDP1 block: inhibitors of human tyrosyl-DNA phosphodiesterase TDP1. Q9NUW8. recombinant TDP1, AlphaScreen DNA substrate cleavage. Potency, µM (series often up to 130 µM), for inactives: at the top dose activity change, negative = inhibition, actives largely listed as inhibitors. hit rate 0.28% among 350,000. AID 485290; note: potency is the fitted concentration of half-maximal effect; % is set by controls: 0 for no effect and ±100 for the full control effect; nearly all actives have a fitted effect of over 40% in size
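AlphaScreen read-out: signal falls as enzyme removes the 3' tyrosine-FITC from a 5'-biotinylated DNA oligo (15 nM, 5 min, RT). Enzyme was E. coli-made recombinant Tdp1 at 1 nM, exposed to compound for 15 min beforehand; beads 10 ug/ml, 10 min.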
miR-21 FLuc: miR-21 reporter, rising signal. HeLa miR-21 FLuc reporter, luciferase, 48 h. Potency, µM (titrated, usually from 38.3 µM), without a hit: at the top dose reporter change, positive = more light. 340,000 tested, under 10 active. AID 2288; active = well fitted rising curve with a large enough effect; inconclusive = small, poorly fitted or top-dose-only effect; inactive = no such curve, though single readings can be large or run the other way;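 also: % of control where 0% means no effect; miR-21 action dims this reporter so a rising signal means less miR-21 action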
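HeLa cells endogenously expressing miR-21, stably carrying CMV-driven firefly luciferase with a downstream miR-21 binding site, 2000 cells/well. Titrations up to approximately 40 uM, 48 hours; luciferase luminescence read.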
uPA generation: blocks generation of uPA at the cell surface. hit rate 0.31% among 330,000. cell surface uPA generation assay, qHTS. Potency, µM (highest dose often 38.3 µM), without a hit: at the top dose activity change, negative = inhibition, usual class: inhibitors; active = well fitted inhibition curve with a large enough effect; inconclusive = small, poorly fitted or top-dose-only effect; inactive = no such curve, though single readings can be large or run the other way; tested in mouse RAW 264.7 cells; note: potency is the fitted concentration of half-maximal effect; % is set by controls: 0 for no effect and ±100 for the full control effect; nearly all actives have a fitted effect of over 55% in size
TDP1 cell CPT: DT40-hTDP1 cell growth loss with CPT | Potency, µM (top dose mostly 46.2 µM), for the others: top-dose activity change, negative = growth inhibition, usual class: inhibitors | chicken DT40 Tdp1-/-;hTDP1 cells + 20 nM CPT, ATP luminescence, 48 h | hit rate 12% among 420,000 | AID 686979; note: potency is the fitted concentration of half-maximal effect; % is set by controls: 0 for no effect and ±100 for the full control effect; nearly all actives have a fitted effect of over 55% in size
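Chicken DT40 Tdp1-/- cells stably complemented with human TDP1 were seeded at 400 cells/well in medium containing 20 nM camptothecin, exposed to pin-transferred compounds, and grown at 37 °C for at least 48 hr. Viability was read as ATP luminescence.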
DT40 TDP1 no CPT: qHTS for Inhibitors of human tyrosyl-DNA phosphodiesterase 1 (TDP1): qHTS in cells in absence of CPT | DT40 Tdp1-/- hTDP1 cells, no CPT, ATP luminescence, 48 h | hit rate 15% among 420,000 | Potency, µM (doses to about 46.2 µM), for the others: at the highest dose activity change, negative = growth inhibition, most hits filed as inhibitors; note: potency is the fitted concentration of half-maximal effect; % is set by controls: 0 for no effect and ±100 for the full control effect; nearly all actives have a fitted effect of over 55% in size
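Chicken DT40 Tdp1-/- cells complemented with human TDP1, screened without camptothecin (DMSO vehicle only), 400 cells/well. Compounds pin-transferred, cells incubated at 37 °C for at least 48 hr. Growth read as ATP-dependent luminescence (CellTiter-Glo, 30 min at RT).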
An asterisk follows results filed as active; ? = inconclusive; nt = no result. Unless noted, calls come from the whole dose curve; as a rule, active = well fitted curve in the direction sought with a large enough effect; inconclusive = small, poorly fitted or top-dose-only effect, or another doubt; inactive = no such curve, though single readings can be large; an effect the other way counts as inactive or inconclusive.

| Structure | TDP1 block | miR-21 FLuc | uPA generation | TDP1 cell CPT | DT40 TDP1 no CPT |
| --- | --- | --- | --- | --- | --- |
| COC(=O)C=C1CCC2C3CCC4=CC(=O)C(Br)CC4(C)C3C(=O)CC12C (stereo not given) | nt | nt | -8% | ? | 16µM* |
| Cc1ccc(-n2ncc(C(=O)NCCN3CCN(C)CC3)c2C2CCN(C(=O)OC(C)(C)C)CC2)cc1 | 5% | -4% | nt | ? | ? |
| COCCCNC(=O)c1cnn(-c2ccccc2Cl)c1C1CCN(C(=O)OC(C)(C)C)CC1 | 3% | -3% | nt | ? | -29% |
| COc1ccc2[nH]cc(CCNC(=O)c3cnn(-c4ccc(C)cc4)c3C3CCN(C(=O)OC(C)(C)C)CC3)c2c1 | 7% | ? | nt | 9.2µM* | 5.2µM* |
| COc1ccc2[nH]cc(CCNC(=O)c3cnn(-c4ccccc4Cl)c3C3CCN(C(=O)OC(C)(C)C)CC3)c2c1 | 5% | 23% | nt | 13µM* | 10µM* |
| CN(CC(=O)Nc1ccc(Cl)cc1)C(=O)CNC(=O)c1cccs1 | 0% | nt | -12% | -2% | -9% |
| Cc1ccc(S(=O)(=O)N2CCC(C)CC2)cc1C(=O)NCCN1CCOCC1 | 4% | -3% | -1% | 8% | 3% |
| O=C(NC1CCN(C(=S)NCCc2ccccc2)CC1)C1CC1 | -3% | 2% | -8% | -1% | -2% |
| CCCNC(=S)N1CCC(C(=O)c2ccc(F)cc2)CC1 | 2% | 1% | -10% | 15µM* | 16µM* |
| O=C(c1ccc(F)cc1)C1CCN(C(=S)Nc2ccc(F)cc2)CC1 | nt | 10% | -9% | ? | 15µM* |
| COc1ccc(C(=O)C2CCN(C(=S)NCCc3ccc(OC)c(OC)c3)CC2)cc1 | 6% | 13% | -3% | 16µM* | 12µM* |
| COc1ccc(CCNC(=S)N2CCC(C(=O)c3ccc(F)cc3)CC2)cc1OC | 8% | 27% | -19% | ? | ? |
| CCCNC(=S)N1CCC(NC(=O)C2CCCCC2)CC1 | 3% | -1% | 6% | 16µM* | ? |
| COCCNC(=S)N1CCC(C(=O)c2ccc(F)cc2)CC1 | nt | nt | 17% | -5% | ? |
| COC(=O)c1ccc(NC(=O)COc2ccc(S(=O)(=O)N3CCCCC3)cc2)cc1 | 6% | 0% | nt | -8% | -17% |
| COc1ccc(C(CNC(=O)c2cccc(NS(=O)(=O)c3ccccc3)c2)N(C)C)cc1 (stereo not given) | 4% | -14% | 4% | -26% | -17% |
| CCOc1ccc(S(=O)(=O)Nc2cccc(C(=O)NCC(c3ccccc3)N(C)C)c2)cc1 (stereo not given) | -10% | nt | 0% | 23µM* | 18µM* |
| COc1ccc(C(CNC(=O)c2ccc(S(=O)(=O)Nc3ccc(F)cc3)cc2)N(C)C)cc1 (stereo not given) | 8% | 5% | 0% | 16µM* | 23µM* |
| Cc1c(Cl)cccc1NC(=S)N1CCC(N(C)CC2CCCO2)CC1 (stereo not given) | 1% | 4% | -4% | 3% | 1% |
| Cc1cc2oc(=O)cc(CN(C)Cc3cccc(F)c3)c2cc1C | nt | -6% | -2% | ? | -7% |
| O=c1cc(CN2CCN(Cc3ccccc3)CC2)c2ccc(O)c(O)c2o1 | nt | -16% | -13% | 10µM* | 15µM* |
| COCCN(CCOC)Cc1cc(=O)oc2cc3c(cc12)CCC3 | 8% | -24% | -2% | -21% | -21% |
| CCc1cc2c(CN(C)Cc3ccccc3F)cc(=O)oc2cc1O | 5% | 24% | 0% | ? | 15µM* |
| CCc1ccc2c(CN3CCN(Cc4ccccc4)CC3)cc(=O)oc2c1 | 1% | -5% | 2% | -23% | ? |
| CCc1cc2c(CN3CCN(Cc4ccccc4)CC3)cc(=O)oc2cc1O | nt | 16% | -1% | 16µM* | 18µM* |
| CC(C)CN(Cc1cc(=O)oc2cc3c(cc12)CCCC3)CC(C)C | 3% | -12% | 7% | ? | 21µM* |
| CCCn1c(SCC(=O)Nc2nccs2)nnc1-c1cccnc1 | -2% | 2% | -4% | -7% | -4% |
| COc1ccc(/C=N/NC(=O)c2ccc(NC(=O)c3cccc([N+](=O)[O-])c3)cc2)c(C(=O)O)c1OC | nt | 9% | -1% | -2% | -20% |

In a second layout: 2 of the compounds above
COC(=O)C=C1CCC2C3CCC4=CC(=O)C(Br)CC4(C)C3C(=O)CC12C (stereo not given)
- TDP1 block: nt
- miR-21 FLuc: nt
- uPA generation: -8%
- TDP1 cell CPT: ?
- DT40 TDP1 no CPT: 16µM*

Cc1ccc(-n2ncc(C(=O)NCCN3CCN(C)CC3)c2C2CCN(C(=O)OC(C)(C)C)CC2)cc1
- TDP1 block: 5%
- miR-21 FLuc: -4%
- uPA generation: nt
- TDP1 cell CPT: ?
- DT40 TDP1 no CPT: ?
